{
  "source": "PubChem BioAssay AID493227",
  "about": "(Broad Institute, 2011)",
  "test_system": "U2OS HRE-luciferase reporter, luminescence, HIF activation",
  "assay": "HIF pathway reporter activators – cell-based, luminescence, U2OS HRE-luc, dry powder, set 8, dose response (AID 493227)",
  "procedure,_shortened": "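Assay system: U2OS 3×HRE-luciferase reporter cells; Input: 6,000 cells/well; Measured by: Steady-Glo luminescence; Times: cells plated 24 h before compound, then 24 h compound exposure; Buffer or medium: phenol red-free DMEM, 10% FBS; Doses: 8-point series in 3-fold steps.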",
  "note": "Activity calls are given as the source filed them.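 How the source made its calls: active means fitted curve reaches 40% activation at a dose no higher than the top dose validly tested; inconclusive means flat curve between 30 and 70% activation, or poor fit; inactive means the rest, including signal moving against the expected rise.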",
  "data": [
    {"compound": "O=c1[nH]c2ccccc2n1C1CCN(Cc2ccc(O)c3ncccc23)CC1", "values": [
      {"measurement": "AC40", "result": "inactive: > 38 µM"}
    ]}
  ]
}
